These are literature values, as cited in US12648951B2, “Methods of treating castration-resistant prostate cancer with glucocorticoid receptor antagonists, androgen deprivation therapy and anti-androgen receptor therapy” (University of Chicago, priority 2012, dated 2026).

For the data set, the system named is VCaP cells which over express androgen receptors. To be noted: cited from earlier work.

Regarding `CNC(=O)c1ccc(N2C(=S)N(c3ccc(C#N)c(C(F)(F)F)c3)C(=O)C2(C)C)cc1F` [MDV3100], the apoptosis entry is on record as “induced apoptosis”.
